AlphaSeq binding of Ab-95 light chain variants to a spike HR2 peptide

Antigen: PDVDLGDISGINAS, a 14-residue peptide of the SARS-CoV-2 spike HR2 region.

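Phage display of a naive human antibody library on the peptide gave the parent. AAYL52 was designed without a model: most single CDR substitutions and a random sample of double and triple ones. The scFvs were displayed on barcoded MATa yeast, the peptide on MATalpha yeast. After mating in shaken culture at 30 °C for 16 h, diploids were selected and their barcode pairs sequenced. Each replicate has its own calibration line, from reference interactions of the BCL2 family. There are three technical replicates.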

Ab-95 is the parent antibody, in scFv form: VH, then a 15-residue (Gly4Ser)3 linker, then VL. The heavy chain is unchanged in all variants.
VH: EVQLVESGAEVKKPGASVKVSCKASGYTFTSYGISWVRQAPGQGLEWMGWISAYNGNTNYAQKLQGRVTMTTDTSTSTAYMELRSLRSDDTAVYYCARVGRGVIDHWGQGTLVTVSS
VL: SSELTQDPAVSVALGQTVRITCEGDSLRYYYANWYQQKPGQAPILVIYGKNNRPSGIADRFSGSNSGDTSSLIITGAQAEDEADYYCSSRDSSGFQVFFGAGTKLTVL

The parent's light chain CDRs are EGDSLRYYYAN, GKNNRPS, SSRDSSGFQVF; each variant's own CDRs replace them letter for letter.
All variants listed here change R28 of the VL, counted from its first residue.
Values are apparent Kd, the geometric mean of the replicates that gave a signal; lower means stronger binding.
"nd" means that the variant was in the library but no mating with the target was seen in any replicate; the authors take this as a sign of poor binding, and no number exists.
Background: pairings of library AAYL52 with three empty control strains gave a value in 28% of cases (median 8.2 µM, 5th percentile 800 nM). Values in that range, when seen in few replicates, are hard to tell from nonspecific mating.
For reference, the parent read 200 nM as the reference entry and 180 nM as a member of this library.

Variant EGDSLVHYYAN / GKNNSPS / SSRDSSGFQVF showed 1.0 µM (3 of 3 replicates).
Variant EGDSLDYYTAN / GKNNRPS / SSRSSSGFQVF showed 120 nM (3 of 3 replicates).
Variant EGDSLMYYYAN / GKNWRPS / SSRDSSGFQVF showed 2.5 µM (3 of 3 replicates).
Variant EGDSLHYYYAN / GKNNRPS / SSRRSSGFQVF showed 5.2 µM (2 of 3 replicates).
Variant EGDSLKYYYAF / GKNNRPS / SSRDSSRFQVF showed 3.2 µM (1 of 3 replicates).
Variant EGDSLLYYYAN / GKNNRPS / SSRDSSGFQQE showed 350 nM (3 of 3 replicates).
Variant EGDSLLYYYAN / GFNNRPS / SSRDSSGFQLF showed 7.7 µM (1 of 3 replicates).
Variant EGDSLCYYYAN / GKNNRPH / SVRDSSGFQVF showed 1.1 µM (3 of 3 replicates).
Variant EGDSLKYYYAN / GKNNGPS / SSRQSSGFQVF showed 23 µM (3 of 3 replicates).
Variant EGRSLCYYYAN / GKNNRPS / SARDSSGFQVF showed 330 nM (3 of 3 replicates).
Variant EGDSLSYYYTN / GKNCRPS / SSRDSSGFQVF showed 6.4 µM (3 of 3 replicates).
Variant EGDSQDYYYAN / GKNNRPS / SSRGSSGFQVF showed 1.1 µM (3 of 3 replicates).
Variant EGDSLPYYYKN / GKNNRPS / SERDSSGFQVF showed 140 nM (3 of 3 replicates).
Variant EGDSLACYYAN / GKNNRPS / SSRDSGGFQVF showed nd (0 of 3 replicates).
Variant ECDSLEYYYAN / GKNNRPS / SSRDSSGFQTF showed 6.0 µM (1 of 3 replicates).
Variant EGDSLTAYYAI / GKNNRPS / SSRDSSGFQVF showed 2.5 µM (2 of 3 replicates).
Variant EFCSLWYYYAN / GKNNRPS / SSRDSSGFQVF showed 5.9 µM (1 of 3 replicates).
Variant EGDSLDDYYAN / GKNNRPS / SCRDSSGFQVF showed 78 nM (3 of 3 replicates).
Variant EGDSLQYYYAN / GKNNRPS / SSRGSSGFQHF showed 52 nM (3 of 3 replicates).
Variant EDDSLEYYYAN / GKKNRPS / SSRDSSGFQVF showed 25 µM (1 of 3 replicates).
Variant EGDSHHYYYAN / GHNNRPS / SSRDSSGFQVF showed 5.7 µM (2 of 3 replicates).
Variant EGDSLTYYYAN / GKNNNPS / SSRISSGFQVF showed 330 µM (1 of 3 replicates).
Variant EGDVLIYYYAN / GKNSRPS / SSRDSSGFQVF showed 7.7 µM (1 of 3 replicates).
Variant EGDSLWSYYAK / GKNNRPS / SSRDSSGFQVF showed 16 µM (1 of 3 replicates).
Variant EGDSLFYYYAN / GKNNRQS / SSRDSEGFQVF showed 40 µM (1 of 3 replicates).
Variant EGDSLCYYYAN / GKNNRPS / SSRDSHGFQVI showed 1.0 µM (3 of 3 replicates).
Variant EGDKLNYYYAN / GKNNRPS / SSRDSSGFLVF showed nd (0 of 3 replicates).
Variant EGDSLMYYYAN / GKNNRPS / SSRDSSGFQVF showed 5.0 µM (3 of 3 replicates).
Variant EARSLGYYYAN / GKNNRPS / SSRDSSGFQVF showed 480 nM (3 of 3 replicates).
Variant EGDSLEYYYAN / AKNNRPS / SSMDSSGFQVF showed 7.4 µM (2 of 3 replicates).
Variant EGDSLDYYYAN / GKNNRES / SYRDSSGFQVF showed 13 µM (2 of 3 replicates).
Variant EGDSLTYYYAN / GKNNRPS / SWRHSSGFQVF showed 66 µM (1 of 3 replicates).
Variant EGDSLTYYYAN / GKNNRPS / SCRDSYGFQVF showed 23 µM (2 of 3 replicates).

Values reported by Engelhart et al. 2022, doi:10.1038/s41597-022-01779-4 (FLAb copy).